The numbers were not newly measured in patent US20060142315A1, “Substituted biaryl piperazinyl-pyridine analogues” (priority 2003, published 2006), which cites them from elsewhere.

By UniProt entry, the sequences of proteins in these tests, tags left out. Residues count along the entry.
UniProt O30463, 1-181: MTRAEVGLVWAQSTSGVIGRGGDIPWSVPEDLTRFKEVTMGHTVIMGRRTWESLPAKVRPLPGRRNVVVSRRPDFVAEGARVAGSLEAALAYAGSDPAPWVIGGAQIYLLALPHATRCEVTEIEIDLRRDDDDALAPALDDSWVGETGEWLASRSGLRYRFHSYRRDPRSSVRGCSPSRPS

The target of the series is Ma DHFR (Mycobacterium avium, UniProt O30463). Particulars: Ma versus human DHFR, Suling and coworkers; cited from earlier work.

On to `Cc1cc(Cl)ccc1NCc1cnc2nc(N)nc(N)c2c1C` [Compound 47, 2,4-diamino-6-(2′-methyl-4′-chloroanilino)methyl-5-methylpyrido[2,3-d]pyrimidine], for which the SI value is listed as 15.
